The values below are quoted from earlier work in publication PMC8348686, “The Pharmacological Profile of Second Generation Pyrovalerone Cathinones and Related Cathinone Derivative” (International Journal of Molecular Sciences, 2021).

Chains of the proteins cited; added tags and fusions are not shown. Residues count along the entry.
UniProt P28335, 33-458: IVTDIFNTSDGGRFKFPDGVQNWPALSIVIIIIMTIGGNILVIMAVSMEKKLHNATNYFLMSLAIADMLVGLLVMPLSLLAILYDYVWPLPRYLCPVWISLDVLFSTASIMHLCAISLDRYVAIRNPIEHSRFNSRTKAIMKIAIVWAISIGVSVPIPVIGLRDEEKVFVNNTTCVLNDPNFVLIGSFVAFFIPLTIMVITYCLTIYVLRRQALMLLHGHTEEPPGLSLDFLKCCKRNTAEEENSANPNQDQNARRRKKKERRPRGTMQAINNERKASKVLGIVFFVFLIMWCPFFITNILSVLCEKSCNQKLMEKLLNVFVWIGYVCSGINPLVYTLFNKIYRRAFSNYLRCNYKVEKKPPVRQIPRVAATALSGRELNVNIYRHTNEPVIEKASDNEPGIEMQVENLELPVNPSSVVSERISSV

The Ki is the equilibrium dissociation constant of an inhibitor or competing ligand from its target.

The target of this series is T1, h5-HT2C receptor (Homo sapiens, UniProt P28335).
T1 construct: expressed in transfected cells; host or cells: HEK293 cell preparations
To be noted: [3H]-Mesulgerine; ref Luethi, Kolaczynska et al. (2019); read-out: h5-HT2C Receptor Binding Ki ± SD; cited from earlier work.

The structures appear in SMILES notation.

For the compound `CNC(C)Cc1ccc2c(c1)OCO2` (stereo not shown) [MDMA, 3,4-methylenedioxymethamphetamine, reference compound], the Ki is 4.4 ± 0.8 µM.
